{
  "source": "PubChem BioAssay AID652154",
  "about": "(Broad Institute, 2013)",
  "note": "Only a part is listed here, and it is no random draw. Some salts and complexes are drawn in separate pieces, as the source files them; their charges need not balance. Calls of active or inactive are those of the source.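 Rule for the calls: active = mean replicate inhibition at least 60% with every replicate also reaching 60%; inconclusive = only one of the two criteria is met; inactive = mean below 60% and not all replicates reaching 60%.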",
  "data": [
    {"test": "inhibitors of PAX8-driven TPO luciferase reporter, primary screen, RMG-I cells, single concentration (AID 652154);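 note: luciferase light reporting Pax8 driven TPO promoter activity; plate controls were median of neutral control wells for no effect and mitoxantrone controls for full effect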", "conditions": "SteadyGlo, 24 h, at 12.6 µM, hits give high values", "values": [
      {"smiles": "Nc1ccc2c(ccc3cccnc32)n1.O=[N+]([O-])c1cc([N+](=O)[O-])c(O)c([N+](=O)[O-])c1", "inhibition": "inactive: -9.12%"},
      {"smiles": "CCOC(=O)c1ccc(NP(C)(=O)Oc2ccc(Cl)cc2)cc1", "note": "(centres undefined)", "inhibition": "active: 129%"},
      {"smiles": "COc1ccccc1OP(C)(=O)Nc1ccccc1Br", "note": "(centres undefined)", "inhibition": "inactive: -1.17%"},
      {"smiles": "CN(C)C(=O)c1c([N+](=O)[O-])cc([N+](=O)[O-])cc1[N+](=O)[O-]", "inhibition": "inactive: -17.5%"},
      {"smiles": "COc1ccc(OP(C)(=O)Nc2ccc(Br)cc2)cc1", "note": "(centres undefined)", "inhibition": "inactive: 8.39%"},
      {"smiles": "CCN(CC)CC(O)COC(=O)C(O)(c1ccccc1)C1CCCCC1", "note": "(centres undefined)", "inhibition": "inactive: 18.2%"},
      {"smiles": "CCc1ccc(OP(C)(=O)Nc2cccnc2)cc1", "note": "(centres undefined)", "inhibition": "inactive: 8.15%"},
      {"smiles": "O=C(OCCCN1CCCC1)C(O)(c1ccccc1)C1CCCCC1", "note": "(centres undefined)", "inhibition": "inactive: -16.2%"},
      {"smiles": "COc1ccccc1OP(C)(=O)Nc1c(C)n(C)n(-c2ccccc2)c1=O", "note": "(centres undefined)", "inhibition": "inactive: 4.02%"},
      {"smiles": "O=[N+]([O-])c1cc([N+](=O)[O-])c(Nc2ccccn2)c([N+](=O)[O-])c1", "inhibition": "inactive: 47%"},
      {"smiles": "Cc1c(NP(C)(=O)Oc2ccc(C(C)C)cc2)c(=O)n(-c2ccccc2)n1C", "note": "(centres undefined)", "inhibition": "inactive: 2.36%"},
      {"smiles": "COc1ccccc1OP(C)(=O)Nc1ccc(C)cc1C", "note": "(centres undefined)", "inhibition": "inactive: 15.3%"},
      {"smiles": "COc1ccccc1OP(C)(=O)Nc1ccc(Br)cc1", "note": "(centres undefined)", "inhibition": "inactive: 16.9%"},
      {"smiles": "CP(=O)(OCCOc1ccccc1)OCCOc1ccccc1", "inhibition": "inactive: -4.08%"},
      {"smiles": "CCCCCCCCCCCCCCCC1C[N+](C)(C)CCOP(C)(=O)O1", "note": "(centres undefined)", "inhibition": "active: 115%"},
      {"smiles": "CP(=O)(Nc1ccc(Cl)cc1Cl)Oc1ccccc1", "note": "(centres undefined)", "inhibition": "inactive: 9.43%"},
      {"smiles": "Cc1cc(C)cc(OP(C)(=O)Nc2cccc(C(F)(F)F)c2)c1", "note": "(centres undefined)", "inhibition": "inactive: 2.47%"},
      {"smiles": "O=C1C(O)=C([N+](=O)[O-])C(=O)C(O)=C1[N+](=O)[O-]", "inhibition": "inactive: -4.86%"},
      {"smiles": "COc1ccc(OP(C)(=O)Nc2ccccc2Br)cc1", "note": "(centres undefined)", "inhibition": "inactive: 10.3%"},
      {"smiles": "Cc1c([N+](=O)[O-])cc([N+](=O)[O-])c(Br)c1[N+](=O)[O-]", "inhibition": "inactive: 4.08%"},
      {"smiles": "CCCCCOc1ccc(NP(C)(=O)Oc2ccc(Cl)cc2Cl)cc1", "note": "(centres undefined)", "inhibition": "inactive: -8.97%"},
      {"smiles": "O=[N+]([O-])c1cc([N+](=O)[O-])c(OC2CCCCC2O)c([N+](=O)[O-])c1", "note": "(centres undefined)", "inhibition": "inactive: -14.5%"},
      {"smiles": "CCN(CC)CCCNc1ccccc1[N+](=O)[O-].O=[N+]([O-])c1cc([N+](=O)[O-])c(O)c([N+](=O)[O-])c1", "inhibition": "inactive: -35%"},
      {"smiles": "COc1ccc(OP(C)(=O)Nc2ccc(SC(F)(F)F)cc2)cc1", "note": "(centres undefined)", "inhibition": "inactive: 40%"},
      {"smiles": "CCOC(=O)c1ccc(NP(C)(=O)Oc2ccc(F)cc2)cc1", "note": "(centres undefined)", "inhibition": "inactive: -9.52%"},
      {"smiles": "O=C(OCCN1CCN(CCOCc2ccccc2)CC1)C(O)(c1ccccc1)c1ccccc1", "inhibition": "inactive: -2.86%"},
      {"smiles": "O=C(OC1CN2CCC1CC2)c1ccc([N+](=O)[O-])cc1", "note": "(centres undefined)", "inhibition": "inactive: 6.19%"},
      {"smiles": "COc1ccc2c(c1O)-c1c(O)c(OC)cc3c1[C@H](C2)[N+](C)(C)CC3.O=[N+]([O-])c1cc([N+](=O)[O-])c([O-])c([N+](=O)[O-])c1[O-]", "inhibition": "inactive: -22.8%"},
      {"smiles": "O=[N+]([O-])c1cc([N+](=O)[O-])c(Nc2ccc(Cl)cc2)c([N+](=O)[O-])c1", "inhibition": "active: 93%"},
      {"smiles": "CC(C)c1ccc(OP(C)(=O)Nc2ccc(SC(F)(F)F)cc2)cc1", "note": "(centres undefined)", "inhibition": "inactive: 18.4%"},
      {"smiles": "O=[N+]([O-])c1cc([N+](=O)[O-])c(C(F)(F)F)c([N+](=O)[O-])c1O", "inhibition": "inactive: -5.5%"},
      {"smiles": "CP(=O)(Nc1ccc(SC(F)(F)F)cc1)Oc1ccc(F)cc1", "note": "(centres undefined)", "inhibition": "inactive: 0.176%"},
      {"smiles": "CCOP(C)(=S)SCC(=O)NC(C)(CC)C(=O)O", "note": "(centres undefined)", "inhibition": "inactive: 1.73%"},
      {"smiles": "Cc1cc(-c2cccc3ccccc23)c(C)cn1.O=[N+]([O-])c1cc([N+](=O)[O-])c(O)c([N+](=O)[O-])c1", "inhibition": "inactive: 8.08%"},
      {"smiles": "O=[N+]([O-])c1cc([N+](=O)[O-])c(NCC2CCS(=O)(=O)C2)c([N+](=O)[O-])c1", "note": "(centres undefined)", "inhibition": "active: 91.6%"},
      {"smiles": "O=[N+]([O-])c1ccc(OP2(=O)COCCO2)cc1", "note": "(centres undefined)", "inhibition": "inactive: 14.1%"},
      {"smiles": "Cc1c(C(c2ccc3c(c2)OCO3)c2c(C)n(C)n(-c3ccccc3)c2=O)c(=O)n(-c2ccccc2)n1C.O=[N+]([O-])c1cc([N+](=O)[O-])c(O)c([N+](=O)[O-])c1", "inhibition": "inactive: -7.44%"},
      {"smiles": "COc1ccc(OP(C)(=O)Nc2cccc(Br)c2)cc1", "note": "(centres undefined)", "inhibition": "inactive: 5.11%"},
      {"smiles": "COc1ccc(NP(C)(=O)Oc2ccccc2OC)cc1", "note": "(centres undefined)", "inhibition": "inactive: 28.6%"},
      {"smiles": "COc1ccccc1OP(C)(=O)Nc1c(C)cccc1C", "note": "(centres undefined)", "inhibition": "inactive: 6.57%"},
      {"smiles": "CN1CCCCC1COC(=O)C1(O)c2ccccc2CCc2ccccc21", "note": "(centres undefined)", "inhibition": "inactive: -0.9%"},
      {"smiles": "CP(=O)(Nc1ccc(SC(F)(F)F)cc1)Oc1ccccc1", "note": "(centres undefined)", "inhibition": "inactive: -1.14%"},
      {"smiles": "CCCOc1ccc(NP(C)(=O)Oc2ccc(Cl)cc2)cc1", "note": "(centres undefined)", "inhibition": "inactive: -19.9%"},
      {"smiles": "COc1ccc(-c2ccccn2)cc1.O=[N+]([O-])c1cc([N+](=O)[O-])c(O)c([N+](=O)[O-])c1", "inhibition": "inactive: -119%"},
      {"smiles": "CCOC(=O)C(CC)C1=NC(C)(C)Cc2ccccc21.O=[N+]([O-])c1cc([N+](=O)[O-])c(O)c([N+](=O)[O-])c1", "note": "(centres undefined)", "inhibition": "inactive: 4.59%"},
      {"smiles": "O=[N+]([O-])c1cc([N+](=O)[O-])c(Nc2nnnn2CCO)c([N+](=O)[O-])c1", "inhibition": "inactive: -0.562%"},
      {"smiles": "O=[N+]([O-])c1cc([N+](=O)[O-])c(-c2cnn(-c3ccccc3)c2)c([N+](=O)[O-])c1", "inhibition": "inactive: 4.46%"},
      {"smiles": "Cc1nc2ccc3ccccc3c2s1.O=[N+]([O-])c1cc([N+](=O)[O-])c(O)c([N+](=O)[O-])c1", "inhibition": "inactive: -58.6%"},
      {"smiles": "O=[N+]([O-])c1cc([N+](=O)[O-])c(-n2nnc3ccccc32)c([N+](=O)[O-])c1", "inhibition": "inactive: -51.2%"},
      {"smiles": "CN(Cc1cccnc1)C(=O)COc1ccc(Cl)c(Cl)c1.O=[N+]([O-])c1cc([N+](=O)[O-])c(O)c([N+](=O)[O-])c1", "inhibition": "inactive: -3.9%"},
      {"smiles": "CP(=O)(Nc1cccc(Br)c1)Oc1ccccc1", "note": "(centres undefined)", "inhibition": "inactive: 24%"},
      {"smiles": "COc1ccccc1OP(C)(=O)Nc1cccc(Br)c1", "note": "(centres undefined)", "inhibition": "inactive: 11.4%"},
      {"smiles": "CCOC(=O)c1ccc(NP(C)(=O)Oc2cc(C)cc(C)c2)cc1", "note": "(centres undefined)", "inhibition": "inactive: 17.5%"},
      {"smiles": "CC1=NCCc2c1[nH]c1ccccc21.O=[N+]([O-])c1cc([N+](=O)[O-])c(O)c([N+](=O)[O-])c1", "inhibition": "inactive: -9.43%"},
      {"smiles": "O=C(O)c1cccc(Nc2c([N+](=O)[O-])cc([N+](=O)[O-])cc2[N+](=O)[O-])c1", "inhibition": "inactive: -1.05%"},
      {"smiles": "CCOC(=O)c1ccc(NP(C)(=O)Oc2ccccc2)cc1", "note": "(centres undefined)", "inhibition": "inactive: -7.97%"},
      {"smiles": "Cc1ccc(NP(C)(=O)Oc2ccccc2)c(C)c1", "note": "(centres undefined)", "inhibition": "inactive: 17.2%"},
      {"smiles": "COc1ccc(OP(C)(=O)Nc2cccc(F)c2)cc1", "note": "(centres undefined)", "inhibition": "inactive: 2.12%"},
      {"smiles": "COc1ccccc1OP(C)(=O)Nc1cc(Cl)ccc1C", "note": "(centres undefined)", "inhibition": "inactive: 14.4%"},
      {"smiles": "Cc1cc(C)cc(OP(C)(N)=O)c1", "note": "(centres undefined)", "inhibition": "inactive: 12.5%"},
      {"smiles": "O=[N+]([O-])c1cc([N+](=O)[O-])c(Nc2cccnc2)c([N+](=O)[O-])c1", "inhibition": "inactive: 35.9%"},
      {"smiles": "Cc1cccc(C)c1OP(C)(N)=O", "note": "(centres undefined)", "inhibition": "inactive: 2.07%"},
      {"smiles": "CC(C)(C)c1ccc(OP(C)(=O)Nc2ccc(SC(F)(F)F)cc2)cc1", "note": "(centres undefined)", "inhibition": "inactive: -0.397%"},
      {"smiles": "O=[N+]([O-])c1ccc2c(c1)C=Nc1ccccc1O2", "inhibition": "inactive: -2.08%"},
      {"smiles": "COc1ccccc1-c1ccccn1.O=[N+]([O-])c1cc([N+](=O)[O-])c(O)c([N+](=O)[O-])c1", "inhibition": "inactive: 4.76%"},
      {"smiles": "CCN(CC)CCCOC(=O)C(O)(c1ccccc1)c1ccccc1", "inhibition": "inactive: -24.4%"},
      {"smiles": "CCOC(=O)c1ccc(NP(C)(=O)Oc2ccc(OC)cc2)cc1", "note": "(centres undefined)", "inhibition": "inactive: 31.2%"},
      {"smiles": "O=[N+]([O-])c1cc([N+](=O)[O-])c(O)c([N+](=O)[O-])c1.c1ccc(Oc2ccncc2)cc1", "inhibition": "inactive: 3.1%"},
      {"smiles": "CP(=O)(Oc1ccccc1)OC(c1ccccc1)C(F)(F)F", "note": "(centres undefined)", "inhibition": "inactive: -3.53%"},
      {"smiles": "Cc1cccc(C)c1OP(C)(=O)Nc1ccc(SC(F)(F)F)cc1", "note": "(centres undefined)", "inhibition": "inactive: 0.113%"},
      {"smiles": "CP(=O)(Nc1ccc(SC(F)(F)F)cc1)Oc1ccc(Cl)cc1", "note": "(centres undefined)", "inhibition": "inactive: 13.8%"},
      {"smiles": "CCc1ccc(OP(C)(=O)N2CCN(c3ccc([N+](=O)[O-])cc3)CC2)cc1", "note": "(centres undefined)", "inhibition": "inactive: 0.343%"},
      {"smiles": "COc1ccccc1OP(C)(=O)Nc1ccccc1", "note": "(centres undefined)", "inhibition": "inactive: 16.8%"},
      {"smiles": "CP(=O)(Nc1ccccc1Br)Oc1ccccc1", "note": "(centres undefined)", "inhibition": "inactive: 29.9%"}
    ]}
  ]
}
